From article PMC4512758 (Analytical biochemistry, 2015) come the findings set out here.

Protein sequences, listed by entry. Tags and fused reporters are not part of them.
UniProt P30536, whole entry: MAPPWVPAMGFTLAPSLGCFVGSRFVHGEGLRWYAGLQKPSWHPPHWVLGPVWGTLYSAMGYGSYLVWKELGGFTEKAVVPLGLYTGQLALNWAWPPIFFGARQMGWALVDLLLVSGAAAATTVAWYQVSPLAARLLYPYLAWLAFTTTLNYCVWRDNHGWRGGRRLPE

Usually pKd stands for the negative decadic logarithm of the Kd, by convention in mol/L. Low values mean a large Kd, high ones a small Kd. The term pKi denotes −log10 of the Ki, conventionally taken in molar units. High values mean a small Ki, low ones a large Ki.

pKd, pKi: −log10 of the molar value.

The target in assay [1] is Translocator protein (TSPO) (Homo sapiens, UniProt P30536). In words: Frontal affinity chromatography. It is filed as binding.
Assay [2] has as its target DIPY binding site of TSPO (Homo sapiens, UniProt P30536). In words: Frontal displacement on MMAC-.

In assay [1], `CCC(C)N(C)C(=O)c1cc2ccccc2c(-c2ccccc2Cl)n1` (centres unmarked) [PK, PK-11195] gave a pKd of 8.07. For the same compound, the pKi in assay [2] is 5.94.
